# Experimental data as given in PubChem BioAssay AID624170 (National Center for Advancing Translational Sciences (NCATS), 2012).
# Protein sequences, listed by entry. Tags and fused reporters are not part of them.
# UniProt O94925, whole entry: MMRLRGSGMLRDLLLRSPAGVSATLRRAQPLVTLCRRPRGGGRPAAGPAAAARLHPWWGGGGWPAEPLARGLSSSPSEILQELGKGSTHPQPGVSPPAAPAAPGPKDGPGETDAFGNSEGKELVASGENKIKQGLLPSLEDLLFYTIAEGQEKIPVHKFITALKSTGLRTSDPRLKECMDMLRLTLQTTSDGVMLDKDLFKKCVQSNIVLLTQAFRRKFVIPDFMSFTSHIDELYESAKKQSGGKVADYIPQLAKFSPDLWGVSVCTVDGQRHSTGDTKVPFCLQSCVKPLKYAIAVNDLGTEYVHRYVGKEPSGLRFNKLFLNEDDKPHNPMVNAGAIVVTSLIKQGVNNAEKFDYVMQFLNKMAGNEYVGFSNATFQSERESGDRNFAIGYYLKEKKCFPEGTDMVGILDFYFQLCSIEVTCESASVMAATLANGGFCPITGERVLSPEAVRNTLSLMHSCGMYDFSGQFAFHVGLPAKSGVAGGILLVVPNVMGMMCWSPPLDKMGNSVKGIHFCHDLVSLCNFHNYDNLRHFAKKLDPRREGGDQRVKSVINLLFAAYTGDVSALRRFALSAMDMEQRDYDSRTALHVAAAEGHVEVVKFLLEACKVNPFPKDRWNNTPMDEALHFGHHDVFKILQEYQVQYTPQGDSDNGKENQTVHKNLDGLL
# This is a selection; strong and weak results do not stand in their true shares. Records with an inconclusive call do not appear. Calls of active or inactive are those of the source. Calls follow the shape of the dose curve; as a rule, active = well fitted inhibition curve with a large enough effect; inconclusive = small, poorly fitted or top-dose-only effect, or another doubt; inactive = no such curve, though single readings can be large or run the other way.
# Target: Glutaminase kidney isoform, mitochondrial (Homo sapiens) (UniProt O94925)
# Test: qHTS for Inhibitors of Glutaminase (GLS)
# Settings: GLS enzymatic activity, qHTS titration
# [1] = at 45.5 µM (top of the series) unless noted
# % is scaled to controls: 0 for no effect and ±100 for the full control effect.
structure (smiles),measurement,setting,value
O=[N+]([O-])c1cc([N+](=O)[O-])c(Nc2cccnc2)c([N+](=O)[O-])c1,"activity change, negative = inhibition",[1],inactive: -4.95%
CC(C)(C)c1ccc(OP(C)(=O)Nc2ccc(SC(F)(F)F)cc2)cc1 (stereo not given),"activity change, negative = inhibition",[1],inactive: -15.7%
Cc1cccc(C)c1OP(C)(N)=O (stereo not given),"activity change, negative = inhibition",[1],inactive: 7.72%
O=[N+]([O-])c1ccc2c(c1)C=Nc1ccccc1O2,"activity change, negative = inhibition",[1],inactive: 11.3%
CCOC(=O)c1ccc(NP(C)(=O)Oc2ccccc2)cc1 (stereo not given),"activity change, negative = inhibition",[1],inactive: 2.47%
COc1ccccc1OP(C)(=O)Nc1ccc(C)cc1 (stereo not given),"activity change, negative = inhibition",[1],inactive: 18.2%
Cc1ccc(NP(C)(=O)Oc2ccccc2)c(C)c1 (stereo not given),"activity change, negative = inhibition",[1],inactive: 9.38%
COc1ccccc1OP(C)(=O)Nc1cc(Cl)ccc1C (stereo not given),"activity change, negative = inhibition",[1],inactive: -18.5%
COc1ccc(OP(C)(=O)Nc2cccc(F)c2)cc1 (stereo not given),"activity change, negative = inhibition",[1],inactive: -5.53%
Cc1cc(C)cc(OP(C)(N)=O)c1 (stereo not given),"activity change, negative = inhibition",[1],inactive: -15.5%
CCN(CC)CCCOC(=O)C(O)(c1ccccc1)c1ccccc1,"activity change, negative = inhibition",[1],inactive: -0.869%
O=[N+]([O-])[O-].[NH4+],"activity change, negative = inhibition",[1],inactive: 2.14%
COc1ccccc1-c1ccccn1.O=[N+]([O-])c1cc([N+](=O)[O-])c(O)c([N+](=O)[O-])c1,"activity change, negative = inhibition",[1],inactive: -6.69%
CP(=O)(Nc1ccc(SC(F)(F)F)cc1)Oc1ccc(Cl)cc1 (stereo not given),"activity change, negative = inhibition",[1],inactive: -0.39%
Cc1cccc(C)c1OP(C)(=O)Nc1ccc(SC(F)(F)F)cc1 (stereo not given),"activity change, negative = inhibition",[1],inactive: 1.19%
CP(=O)(Oc1ccccc1)OC(c1ccccc1)C(F)(F)F (stereo not given),"activity change, negative = inhibition",[1],inactive: -0.0458%
CCc1ccc(OP(C)(=O)N2CCN(c3ccc([N+](=O)[O-])cc3)CC2)cc1 (stereo not given),"activity change, negative = inhibition",[1],inactive: -1.49%
CP(=O)(NC(=O)Nc1ccccc1)Oc1ccccc1 (stereo not given),"activity change, negative = inhibition",[1],inactive: 27.1%
Cc1cc(C)cc(OP(C)(=O)Nc2ccc(SC(F)(F)F)cc2)c1 (stereo not given),"activity change, negative = inhibition",[1],inactive: -0.526%
CCOP(C)(=S)SCC(=O)NC(C)C(=O)O (stereo not given),"activity change, negative = inhibition",[1],inactive: -6.1%
O=[N+]([O-])c1cc([N+](=O)[O-])c(O)c([N+](=O)[O-])c1.c1ccc(Oc2ccncc2)cc1,"activity change, negative = inhibition",[1],inactive: 39.5%
CCOC(=O)c1ccc(NP(C)(=O)Oc2ccc(OC)cc2)cc1 (stereo not given),"activity change, negative = inhibition",[1],inactive: 6.84%
CN(C)CCS,"activity change, negative = inhibition",[1],inactive: 13.7%
CP(=O)(Nc1ccccn1)Oc1ccc(Cl)cc1 (stereo not given),"activity change, negative = inhibition",[1],inactive: -1.24%
CP(=S)(Nn1cnnc1)Oc1ccccc1 (stereo not given),"activity change, negative = inhibition",[1],inactive: 6.52%
COc1ccccc1OP(C)(=O)Nc1ccccc1 (stereo not given),"activity change, negative = inhibition",[1],inactive: -1.1%
CP(=O)(Nc1ccccc1Br)Oc1ccccc1 (stereo not given),"activity change, negative = inhibition",[1],inactive: -0.298%
O=[N+]([O-])c1cc([N+](=O)[O-])c(Nc2nnnn2CCO)c([N+](=O)[O-])c1,"activity change, negative = inhibition",[1],inactive: 6.49%
CC1=C2N=C(C=C3N=C(C(C)=C4[N-][C@@](C)([C@@H]5N=C1[C@](C)(CCC(=O)NC[C@@H](C)OP(=O)([O-])O[C@H]1[C@@H](O)[C@@H](n6cnc7cc(C)c(C)cc76)O[C@@H]1CO)[C@H]5CC(N)=O)[C@@](C)(CC(N)=O)[C@@H]4CCC(N)=O)[C@@](C)(CC(N)=O)[C@@H]3CCC(N)=O)C(C)(C)[C@@H]2CCC(N)=O.[C-]#N.[Co+3],"activity change, negative = inhibition",[1],inactive: -1.33%
CN1CCCCC1COC(=O)C1(O)c2ccccc2CCc2ccccc21 (stereo not given),"activity change, negative = inhibition",[1],inactive: 4.53%
COc1ccccc1OP(C)(=O)Nc1c(C)cccc1C (stereo not given),"activity change, negative = inhibition",[1],inactive: -6.4%
CP(=O)(Nc1ccc(SC(F)(F)F)cc1)Oc1ccccc1 (stereo not given),"activity change, negative = inhibition",[1],inactive: 1.14%
CCCOc1ccc(NP(C)(=O)Oc2ccc(Cl)cc2)cc1 (stereo not given),"activity change, negative = inhibition",[1],inactive: 4.03%
O=[N+]([O-])c1cc([N+](=O)[O-])c(-n2nnc3ccccc32)c([N+](=O)[O-])c1,"activity change, negative = inhibition",[1],inactive: 20.8%
CN(Cc1cccnc1)C(=O)COc1ccc(Cl)c(Cl)c1.O=[N+]([O-])c1cc([N+](=O)[O-])c(O)c([N+](=O)[O-])c1,"activity change, negative = inhibition",[1],inactive: 13%
CC(C)N(CCCl)C(C)C,"activity change, negative = inhibition",[1],inactive: -0.546%
O=[N+]([O-])c1cc([N+](=O)[O-])c(-c2cnn(-c3ccccc3)c2)c([N+](=O)[O-])c1,"activity change, negative = inhibition",[1],inactive: 6.89%
Cc1nc2ccc3ccccc3c2s1.O=[N+]([O-])c1cc([N+](=O)[O-])c(O)c([N+](=O)[O-])c1,"activity change, negative = inhibition",[1],inactive: 18.3%
COc1ccccc1OP(C)(=O)Nc1cccc(Br)c1 (stereo not given),"activity change, negative = inhibition",[1],inactive: -7.96%
Cc1cc(C)cc(OP(C)(=O)Nc2ccc(C)cc2C)c1 (stereo not given),"activity change, negative = inhibition",[1],inactive: 0.41%
CCOC(=O)c1ccc(NP(C)(=O)Oc2cc(C)cc(C)c2)cc1 (stereo not given),"activity change, negative = inhibition",[1],inactive: 7.3%
CP(=O)(Nc1cccc(Br)c1)Oc1ccccc1 (stereo not given),"activity change, negative = inhibition",[1],inactive: -3.18%
Cc1cc(C)cc(OP(C)(=O)Nc2ccccn2)c1 (stereo not given),"activity change, negative = inhibition",[1],inactive: 10%
Cc1ccc(C)c(NP(C)(=O)Oc2ccccc2)c1 (stereo not given),"activity change, negative = inhibition",[1],inactive: 15.3%
O=[N+]([O-])c1cccc([N+](=O)[O-])c1,"activity change, negative = inhibition",at 45.5 µM (top of the series),inactive: -13.4%
same,"activity change, negative = inhibition",at 99.4 µM (top of the series),inactive: -5.18%
O=[N+]([O-])OCC(CO[N+](=O)[O-])(CO[N+](=O)[O-])CO[N+](=O)[O-],"activity change, negative = inhibition",[1],inactive: -2.43%
CC1=NCCc2c1[nH]c1ccccc21.O=[N+]([O-])c1cc([N+](=O)[O-])c(O)c([N+](=O)[O-])c1,"activity change, negative = inhibition",[1],inactive: 0.316%
Cc1cccc([N+](=O)[O-])c1[N+](=O)[O-],"activity change, negative = inhibition",[1],inactive: -4.78% [at 99.4 µM]
COc1ccc(OP(C)(=O)Nc2ccc(SC(F)(F)F)cc2)cc1 (stereo not given),"activity change, negative = inhibition",[1],inactive: -10.5%
